Experimental data published in PubChem BioAssay (EPA / NIEHS).
The list shows a part of the results, in another mix than the full data. Calls of active or inactive are those of the source. Rule for the calls: active = hit-call score of the fitted dose curve at least 0.9, where 1 is the maximum; inactive = score below 0.9.

Sequences of proteins named here, by UniProt entry; tags and fusion partners are left off.
UniProt P08047, whole entry, looked up: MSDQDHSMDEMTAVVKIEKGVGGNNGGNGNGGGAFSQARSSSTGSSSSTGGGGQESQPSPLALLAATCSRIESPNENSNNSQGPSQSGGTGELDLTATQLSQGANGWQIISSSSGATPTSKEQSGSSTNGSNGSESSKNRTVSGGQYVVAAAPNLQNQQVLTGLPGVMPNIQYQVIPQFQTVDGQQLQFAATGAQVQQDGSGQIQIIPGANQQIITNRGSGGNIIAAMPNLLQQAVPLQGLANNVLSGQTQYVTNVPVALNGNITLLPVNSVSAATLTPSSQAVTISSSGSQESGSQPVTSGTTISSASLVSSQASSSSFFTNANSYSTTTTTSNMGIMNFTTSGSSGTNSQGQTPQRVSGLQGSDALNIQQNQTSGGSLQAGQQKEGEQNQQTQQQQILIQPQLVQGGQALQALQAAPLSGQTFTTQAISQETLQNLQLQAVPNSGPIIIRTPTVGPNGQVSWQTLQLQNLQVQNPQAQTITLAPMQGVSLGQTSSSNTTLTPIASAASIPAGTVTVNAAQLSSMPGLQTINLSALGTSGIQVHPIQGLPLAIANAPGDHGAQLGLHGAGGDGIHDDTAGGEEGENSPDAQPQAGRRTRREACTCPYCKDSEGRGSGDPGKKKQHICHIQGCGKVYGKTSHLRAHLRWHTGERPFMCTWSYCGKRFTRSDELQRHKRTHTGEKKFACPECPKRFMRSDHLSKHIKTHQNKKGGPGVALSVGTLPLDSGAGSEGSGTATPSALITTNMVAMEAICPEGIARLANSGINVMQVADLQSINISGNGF

What follows are compounds tested against Transcription factor Sp1 (Homo sapiens) (UniProt P08047) (assay: ATG_Sp1_CIS: Attagene CIS-FACTORIAL HepG2 Assay for human Specificity Protein 1 (Sp1) (AID 2282961)). Details: HepG2 Sp1 cis-reporter transcription, actives raise or lower the signal.
Procedure: ATG_CIS is a cell-based, multiplexed-readout assay that uses HepG2, a human liver cell line, with measurements taken at 24 hours after chemical dosing in a 24-well plate.ATG_Sp1_CIS is one of 52 assay component(s) measured or calculated from the ATG_CIS assay. It is designed to make measurements of mRNA induction, a form of inducible reporter, as detected with fluorescence intensity signals by Reverse transcription polymerase chain reaction (RT-PCR) and Capillary electrophoresis technology.Data from the assay component ATG_Sp1_CIS was analyzed into 1 assay endpoint. This assay endpoint, ATG_Sp1_CIS, was analyzed with bidirectional fitting relative to DMSO as the negative control and baseline of activity. Using a type of inducible reporter, measures of mRNA for gain or loss-of-signal activity can be used to understand the reporter gene at the transcription factor-level as they relate to the gene SP1. Furthermore, this assay endpoint can be referred to as a primary readout, because this assay has produced multiple assay endpoints where this one serves a reporter gene function. To generalize the intended target to other relatable targets, this assay endpoint is annotated to the dna binding intended target family, where the subfamily is zinc finger.
Human liver HepG2 cells are transiently transfected with multiple reporter transcription units (MRTUs) in 6-well plates using FuGene 6 reagent (Roche; 3 ml FuGene/1 mg DNA). The MRTU constructs are regulated by a cis-regulating element (promoter). […] A major difference between the CIS and TRANS system is that in CIS activities of endogenous TFs are measured, whereas the TRANS assay evaluates changes in activities of exogenous, chimeric NR-Gal4 proteins. […] At the end of 24 hour incubation, total RNA was isolated using TriZol reagent (Invitrogen). The isolated RNA is then reverse-transcribed using oligo(dT) primer and Mo-MLV reverse transcriptase (Invitrogen) with DNAse I (Ambion) treatment for 30 min. The one-tenth of the produced cDNA was amplified by PCR using Taq DNA polymerase (Invitrogen) and two reporter sequence-specific primers. The PCR products were fluorescently labeled by primer extension with 6-arboxyfluorescein (6-FAM) 5'-labeled reporter sequence-specific primer (2 min at 95 C, 20 s at 68 C and 10 min at 72 C) and these products were digested with 5U of HpaI (New England Biolabs) for 2h at 37 C. The fragments were purified using Qiaquick PCR columns (Qiagen), analyzed on an ABI 3130xL genetic analyzer (Applied Biosystems) with peak positions identified by using a set of X-rhodamine (ROX)-labeled MapMarker1000 molecular weight standards (BioVentures). The raw capillary electrophoresis data was processed using Attagraph software (Attagene).
For `O=[As]c1ccccc1` (stereo unspecified), the AC50 was active: 0.329 µM.
With `O=C(Cl)OCCOC(=O)Cl` the outcome was “inactive”.
For `ClP(Cl)c1ccccc1`, the outcome was “inactive”.
For `N#CSc1ccc([N+](=O)[O-])cc1[N+](=O)[O-]`, the outcome was “inactive”.
`CCCCOP(OCCCC)OCCCC` was tested, and the outcome was “inactive”.
With `CCCCC(CC)CO[P+](=O)OCC(CC)CCCC` (stereo unspecified) the outcome was “inactive”.
`O=[p+]1oc2ccccc2c2ccccc21` (stereo unspecified) was tested, and the outcome was “inactive”.
For `CC(C)OP(=S)(OC(C)C)SCCNS(=O)(=O)c1ccccc1`, the outcome was “inactive”.
In the case of `O=C1C2CC=CCC2C(=O)N1SC(Cl)(Cl)C(Cl)Cl` (stereo unspecified), the outcome is reported as “inactive”.
In the case of `O=P(Cl)(Oc1ccccc1)Oc1ccccc1`, the outcome is reported as “inactive”.
In the case of `Cc1cc([N+](=O)[O-])cc([N+](=O)[O-])c1O`, the outcome is reported as “inactive”.
With `O=[P+](Oc1ccccc1)Oc1ccccc1` the outcome was “inactive”.
For `CN(C(=O)Cc1cccc2occc12)[C@H]1CC[C@@]2(CCCO2)C[C@@H]1N1CCCC1`, the outcome was “inactive”.
In the case of `CC(C)CCCCCCCOP(OCCCCCCCC(C)C)Oc1ccccc1`, the AC50 is reported as active: 126 µM.
For `O=C(Cl)Oc1ccccc1`, the outcome was “inactive”.
In the case of `CCCCO[P+](=O)OCCCC`, the outcome is reported as “inactive”.
